These results are taken from patent US6544542B1, “Fat emulsions for inhalational administration” (Nippon Shinyaku Co., Ltd., priority 1998, dated 2003).

A short description of the data set: Test Example 7: influence of the solubilization-effective surfactant concentration on nebulizer sprayability. It is filed as physicochemical.

For the substance Triton X100, the “nebulizer sprayability, Dexamethasone palmitate” value was “Infeasible”.
